ChEMBL document CHEMBL5653621, “Freezing the Bioactive Conformation to Boost Potency: The Identification of BAY 85-8501, a Selective and Potent Inhibitor of Human Neutrophil Elastase for Pulmonary Diseases” (ChemMedChem, 2015)

Amino acid sequences for entries named in this document (tags omitted). Residues count along the entry.
UniProt P00742, 41-179 limits assumed: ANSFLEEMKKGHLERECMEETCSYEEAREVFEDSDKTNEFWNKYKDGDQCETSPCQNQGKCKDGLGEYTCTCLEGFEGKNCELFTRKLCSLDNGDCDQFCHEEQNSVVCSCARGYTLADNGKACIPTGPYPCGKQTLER
UniProt P00742, 235-488 limits assumed: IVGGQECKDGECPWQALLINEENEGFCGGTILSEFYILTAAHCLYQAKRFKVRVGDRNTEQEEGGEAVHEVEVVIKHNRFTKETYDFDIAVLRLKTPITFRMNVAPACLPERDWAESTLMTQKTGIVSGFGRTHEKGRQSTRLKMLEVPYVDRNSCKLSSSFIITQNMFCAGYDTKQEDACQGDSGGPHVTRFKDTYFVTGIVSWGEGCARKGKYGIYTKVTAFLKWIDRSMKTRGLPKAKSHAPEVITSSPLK

Assays:
[1] = target: Urokinase-type plasminogen activator (Homo sapiens, UniProt P00749)
Neutrophil elastase [2] = target: T1, Neutrophil elastase (Homo sapiens, UniProt P08246)
T1 sequence (P08246 whole entry): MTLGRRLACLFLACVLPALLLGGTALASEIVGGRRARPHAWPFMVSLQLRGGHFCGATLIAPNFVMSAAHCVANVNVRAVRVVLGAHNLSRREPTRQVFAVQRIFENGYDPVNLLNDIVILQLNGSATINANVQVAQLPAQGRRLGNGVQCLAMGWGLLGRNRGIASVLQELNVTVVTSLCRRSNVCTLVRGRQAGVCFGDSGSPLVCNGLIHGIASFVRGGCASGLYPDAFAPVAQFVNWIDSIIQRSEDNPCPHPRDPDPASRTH

Coagulation factor X = Coagulation factor X (Homo sapiens, UniProt P00742)
Prothrombin = Prothrombin (Homo sapiens, UniProt P00734)
Neutrophil elastase [3] = target: T1, Neutrophil elastase; remark: listed apart in the source

## CC(=O)C1=C(C)N(c2cccc(C(F)(F)F)c2)C(=O)N[C@@H]1c1ccc(C#N)nc1 [BAY-678]
[1]
  IC50: > 30 µM
Neutrophil elastase [2]
  Ki: 15 nM
Coagulation factor X
  IC50: > 30 µM
Prothrombin
  IC50: > 30 µM

## CC1=C(C#N)[C@@H](c2ccc(C#N)cc2S(C)(=O)=O)N(C)C(=O)N1c1cccc(C(F)(F)F)c1
[1]
  IC50: > 30 µM
Neutrophil elastase [2]
  Ki: 0.08 nM
Coagulation factor X
  IC50: > 30 µM
Neutrophil elastase [3]
  IC50: 0.00014 µM
Prothrombin
  IC50: > 30 µM
